# PubChem BioAssay AID720522 (National Center for Advancing Translational Sciences (NCATS), 2013)
# The chains behind the UniProt entries cited, without tags or fusion partners.
# UniProt P08659, whole entry, looked up: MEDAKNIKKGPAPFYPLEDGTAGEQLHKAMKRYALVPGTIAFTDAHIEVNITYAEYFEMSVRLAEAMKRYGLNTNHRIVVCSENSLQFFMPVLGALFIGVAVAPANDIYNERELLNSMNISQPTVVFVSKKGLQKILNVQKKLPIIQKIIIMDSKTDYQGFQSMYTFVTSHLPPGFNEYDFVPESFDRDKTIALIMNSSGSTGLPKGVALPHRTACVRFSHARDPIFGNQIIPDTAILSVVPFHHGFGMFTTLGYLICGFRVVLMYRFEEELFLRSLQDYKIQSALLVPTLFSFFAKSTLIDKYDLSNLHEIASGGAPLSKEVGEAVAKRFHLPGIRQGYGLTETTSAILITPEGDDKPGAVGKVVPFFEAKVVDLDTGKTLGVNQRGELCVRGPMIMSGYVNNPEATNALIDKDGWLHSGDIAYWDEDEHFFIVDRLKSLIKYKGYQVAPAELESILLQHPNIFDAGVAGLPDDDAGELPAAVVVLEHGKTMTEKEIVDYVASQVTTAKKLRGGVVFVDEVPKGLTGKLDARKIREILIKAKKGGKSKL
# This list holds what a sample rich in hits left over. Inconclusive results are not listed. Calls of active or inactive are those of the source. Calls come from the whole dose curve; as a rule, active = well fitted inhibition curve with a large enough effect; inconclusive = small, poorly fitted or top-dose-only effect; inactive = flat fitted curve, though single readings scatter.
# Molecular target: Luciferin 4-monooxygenase (Photinus pyralis) (UniProt P08659)
# Assay: Nrf2 qHTS screen for inhibitors: Purified Fluc Biochemical Counterscreen for Hit Validation; note: nearly all actives have a fitted effect of over 65% in size
# Conditions: purified firefly luciferase, luminescence inhibition; at 57.5 µM (top of the series)
# From the text: Nrf2 is a transcription factor that maintains cellular redox homoestasis and protects cells from xenobiotics. Nrf2 binds to the antioxidant response element (ARE) to induce gene expression of a broad spectrum of genes that encode for antioxidants. […] Finding a small molecule that act as an inhibitor of Nrf2 function would represent a novel therapeutic target that could lead to improvement in survival of patients undergoing chemo- and/or radio- therapy.
# A biochemical assay in 1536 well format was developed and utilized to remove compounds that inhibit the luciferase reporter (Fluc) rather than the Nrf2 enzyme. Inhibition of this assay = false positive inhibition of Nrf2.
# NIH Chemical Genomics Center [NCGC]
# NIH Molecular Libraries Probe Centers Network [MLPCN]
# Assay Submitter (PI): Shyam Biswal, Johns Hopkins University
# [1] Shibata T., et al., Genetic alteration of Keap1 confers constitutive Nrf2 activation and resistance to chemotherapy in gallbladder cancer. Gastroenterology, 2008.
# [2] […]
# Three microliter of substrate solution containing 50mM Tris acetate, 13.3 mM Mg-acetate, 0.01mM ATP, 0.01% Tween, 0.05% BSA and 0.01mM D-Luciferin (Sigma, #L9504) was dispensed into 1536 well white solid bottom assay plate (Greiner Bio, #789173-F). […] Luminescence signal was acquired using the PerkinElmer Viewlux plate reader after incubation at room temperature for 10 minutes.
# % is set by controls: 0 for no effect and ±100 for the full control effect.
row,Structure (SMILES),"activity change, negative = inhibition"
1,N=C(N)c1ccc(OCCCCCOc2ccc(C(=N)N)cc2)cc1,inactive: 3.49%
